The target in the assay is T1, huBCMA on H929 cells (Homo sapiens, UniProt Q02223, N81S).
T1 construct: endogenous in cells; host or cells: H929 human multiple myeloma cell line
T1 sequence (Q02223 1-184 N81S): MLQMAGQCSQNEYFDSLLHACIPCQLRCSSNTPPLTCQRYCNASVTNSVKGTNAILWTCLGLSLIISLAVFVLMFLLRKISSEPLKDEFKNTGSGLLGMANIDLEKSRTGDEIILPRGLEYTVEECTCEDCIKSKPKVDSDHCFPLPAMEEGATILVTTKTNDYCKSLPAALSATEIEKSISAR
The assay is described as follows: FACS binding to native BCMA on H929 myeloma cells. Particulars: flow cytometry; muteins relative to parental 2A1. How it is done: Approximately 10 to 40×10^6 of H929 myeloma cells were resuspended in a staining solution (2% goat serum, 1% rabbit serum, 0.02% azide in PBS) and aliquoted into round-bottom, 96-well plate (Corning Incorp., Acton, Mass.) as per the experiment design. The cells were incubated at 4 degrees celsius for 30 minutes to block non-specific sites. The antibodies were titrated into the staining solution. The cells were rinsed in a rinse solution (PBS+0.02% azide) by resuspending the cells in 200 ul/well. The cells were centrifuged at 1500 rpm at 4 degrees celsius for 7 minutes. The rinse solution was removed and the rinse step was repeated. […] The huIgG1 negative control's secondary reagent was a biotinylated anti-huIgG (Jackson Labs, Bar Harbor, Me., Cat. 109-065-098), followed by a streptavidin-phycoerythrin (SA-PE) conjugate (BD Pharmingen, San Diego, Calif., Cat. 554061). […] The cells/antibodies were rinsed as described above to remove excess/unbound antibody. […] Samples were read at 532 nm wavelength on FACS.
To further characterize the engineered mutein antibodies, they were tested for the ability to bind BCMA by FACS analysis. […] The supernatants were removed and the cell pellets were resuspended in 0.2 mL/tube 4% paraformaldehyde in PBS and analyzed by flow cytometry
(In flow cytometry, cells or beads pass a laser one at a time.)

B1: 2A1: parental fully human anti-huBCMA mAb, Vh SEQ ID NO:214, Vl SEQ ID NO:248; heavy chain SEQ ID NO:287, light chain 288 (antibody)
heavy: EVQLVESGGGLVKPGRSLRLSCTASGFTFGDYALSWFRQAPGKGLEWVGVSRSKAYGGTTDYAASVKGRFTISRDDSKSFAYLQMNSLKTEDTAVYYCCSSGYSSGWTPFDYWGQGTLVTVSSASTKGPSVFPLAPSSKSTSGGTAALGCLVKDYFPEPVTVSWNSGALTSGVHTFPAVLQSSGLYSLSSVVTVPSSSLGTQTYICNVNHKPSNTKVDKKV[omitted - human IgG1 Fc]
light: QSVLTQPPSASGTPGQRVTISCSGSSSNIGSNTVNWYQQLPGTAPKLLIFNYHQRPSGVPDRFSGSKSGSSASLAISGLQSEDEADYYCAAWDDSLNGWVFGGGTELTVLGQPKAAPSVTLFPPSSEELQANKATLVCLISDFYPGAVTVAWKADSSPVKAGVETTTPSKQSNNKYAASSYLSLTPEQWKSHRSYSCQVTHEGSTVEKTVAPTECS
As to B1, the “binding to BCMA on H929 cells” value is reported as “bound to human BCMA”.
